Sequences of proteins named here, by UniProt entry; tags and fusion partners are left off.
UniProt P08588, whole entry: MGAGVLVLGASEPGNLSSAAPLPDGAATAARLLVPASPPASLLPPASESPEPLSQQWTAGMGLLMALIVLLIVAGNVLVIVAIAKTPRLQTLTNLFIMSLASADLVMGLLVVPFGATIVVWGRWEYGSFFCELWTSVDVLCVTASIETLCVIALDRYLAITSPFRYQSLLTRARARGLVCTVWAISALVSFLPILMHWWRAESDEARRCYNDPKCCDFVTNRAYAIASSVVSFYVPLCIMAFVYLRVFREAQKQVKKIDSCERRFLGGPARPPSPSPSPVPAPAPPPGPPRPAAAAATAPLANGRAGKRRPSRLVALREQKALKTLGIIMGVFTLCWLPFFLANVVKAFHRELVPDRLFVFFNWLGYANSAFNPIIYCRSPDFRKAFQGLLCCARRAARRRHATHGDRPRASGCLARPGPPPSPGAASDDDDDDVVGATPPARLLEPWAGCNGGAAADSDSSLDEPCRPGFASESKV

In patent publication US10251959B2, “Oligomer-beta blocker conjugates” (Nektar Therapeutics, priority 2007, dated 2019):

Biological target: T1, adrenergic, beta-1 (human) (Homo sapiens, UniProt P08588)
T1 construct: expressed in transfected cells; host or cells: Sf9 insect cells (membranes)
Test: adrenergic, beta-1 (human) binding assay; human recombinant Sf9 cells, membranes, Europium time-resolved fluorescence
Assay type: biochemical
Procedure: The compound of interest is added to the membrane and then incubated for ten minutes. Thereafter, 100 nM GTP-Eu is added and incubated for an additional thirty minutes. Europium fluorescence is measured in a time-resolved fluorometer in order to ascertain any functional antagonist activity at the adrenergic beta 1 site. […] Briefly, Human recombinant Sf9 cells were used, wherein reactions were carried out in 50 mM HEPES [pH 7.4] containing 3 mM MgCl2, 0.1 μM GDP, 10 μm/mL Saoonin, and 1 mM DTT (dithiothreitol). The compound of interest was added to the membrane and then incubated for ten minutes at room temperature. Then, 30 nM of isoproterenol [final] to each well was added and allowed to incubate for an additional 30 minutes. Europium fluorescence was measured in a time-resolved fluorometer in order to ascertain any functional antagonist activity at the adrenergic beta-1 site. […] Briefly, Human recombinant Sf9 cells were used, wherein reactions were carried out in 50 mM HEPES [pH 7.4] containing 3 mM MgCl2, 0.1 μM GDP, 10 μm/mL Saoonin, and 1 mM DTT (dithiothreitol). The compound of interest was added to the membrane and then incubated for ten minutes at room temperature. […] Europium fluorescence was measured in a time-resolved fluorometer in order to ascertain any functional antagonist activity at the adrenergic beta-1 site.

`C=CCc1ccccc1OCC(O)CNC(C)C` (centres unmarked) [Alprenolol, alprenolol, reference compound] was tested, and the IC50 (Table 2, 30 nM isoproterenol) was 28.3 nM and the IC50 (Table 4, 30 nM isoproterenol) was 12.9 nM.
